Source: US20200249194A9, “PROSTATE PROTEASE NANOSENSORS AND USES THEREOF” (Massachusetts Institute of Technology, priority 2017, published 2020)

Tested on: MMP13, uPA, KLK, MMP
Assay: Substrate cleavage assay of protease nanosensors (FIG. 12A)
Type: biochemical
Procedure: Xenograft model 22Rv1 (a non-metastatic tumor, referred to as Tnon-met) is derived from a primary tumor. […] PC3 (a metastatic tumor, referred to as Tmet) is undifferentiated, AR^−, PSA^−, and metastasizes to lymph node (LN), lung, and bone. Multiplexed sensors were selected to classify Tmet from Tnon-met (FIGS. 7A-7F). A substrate cleavage assay was performed (FIG. 12A) with several protease nanosensors (FIGS. 9A-9B and FIGS. 12A-12B). […] It was observed that multiplexed nanosensors classify Tmet from Tnon-met and outperform serum PSA measurements (FIG. 13) and that protease activity can classify Tmet versus Tnon-met cell lines. Multiplexing typically increases predictive power.

SB14: protease nanosensor, MMP13 substrate, SEQ ID NO: 10 (EGVNDNEEGFFSARKGGLGPKGQTGGC)
substrate specificity of nanosensor: MMP13 substrate
